# Measurements from PubChem BioAssay AID1671202 (University of Kansas High Throughput Screening Laboratory, 2021).
# Chains of the proteins cited; added tags and fusions are not shown.
# UniProt P42858, whole entry: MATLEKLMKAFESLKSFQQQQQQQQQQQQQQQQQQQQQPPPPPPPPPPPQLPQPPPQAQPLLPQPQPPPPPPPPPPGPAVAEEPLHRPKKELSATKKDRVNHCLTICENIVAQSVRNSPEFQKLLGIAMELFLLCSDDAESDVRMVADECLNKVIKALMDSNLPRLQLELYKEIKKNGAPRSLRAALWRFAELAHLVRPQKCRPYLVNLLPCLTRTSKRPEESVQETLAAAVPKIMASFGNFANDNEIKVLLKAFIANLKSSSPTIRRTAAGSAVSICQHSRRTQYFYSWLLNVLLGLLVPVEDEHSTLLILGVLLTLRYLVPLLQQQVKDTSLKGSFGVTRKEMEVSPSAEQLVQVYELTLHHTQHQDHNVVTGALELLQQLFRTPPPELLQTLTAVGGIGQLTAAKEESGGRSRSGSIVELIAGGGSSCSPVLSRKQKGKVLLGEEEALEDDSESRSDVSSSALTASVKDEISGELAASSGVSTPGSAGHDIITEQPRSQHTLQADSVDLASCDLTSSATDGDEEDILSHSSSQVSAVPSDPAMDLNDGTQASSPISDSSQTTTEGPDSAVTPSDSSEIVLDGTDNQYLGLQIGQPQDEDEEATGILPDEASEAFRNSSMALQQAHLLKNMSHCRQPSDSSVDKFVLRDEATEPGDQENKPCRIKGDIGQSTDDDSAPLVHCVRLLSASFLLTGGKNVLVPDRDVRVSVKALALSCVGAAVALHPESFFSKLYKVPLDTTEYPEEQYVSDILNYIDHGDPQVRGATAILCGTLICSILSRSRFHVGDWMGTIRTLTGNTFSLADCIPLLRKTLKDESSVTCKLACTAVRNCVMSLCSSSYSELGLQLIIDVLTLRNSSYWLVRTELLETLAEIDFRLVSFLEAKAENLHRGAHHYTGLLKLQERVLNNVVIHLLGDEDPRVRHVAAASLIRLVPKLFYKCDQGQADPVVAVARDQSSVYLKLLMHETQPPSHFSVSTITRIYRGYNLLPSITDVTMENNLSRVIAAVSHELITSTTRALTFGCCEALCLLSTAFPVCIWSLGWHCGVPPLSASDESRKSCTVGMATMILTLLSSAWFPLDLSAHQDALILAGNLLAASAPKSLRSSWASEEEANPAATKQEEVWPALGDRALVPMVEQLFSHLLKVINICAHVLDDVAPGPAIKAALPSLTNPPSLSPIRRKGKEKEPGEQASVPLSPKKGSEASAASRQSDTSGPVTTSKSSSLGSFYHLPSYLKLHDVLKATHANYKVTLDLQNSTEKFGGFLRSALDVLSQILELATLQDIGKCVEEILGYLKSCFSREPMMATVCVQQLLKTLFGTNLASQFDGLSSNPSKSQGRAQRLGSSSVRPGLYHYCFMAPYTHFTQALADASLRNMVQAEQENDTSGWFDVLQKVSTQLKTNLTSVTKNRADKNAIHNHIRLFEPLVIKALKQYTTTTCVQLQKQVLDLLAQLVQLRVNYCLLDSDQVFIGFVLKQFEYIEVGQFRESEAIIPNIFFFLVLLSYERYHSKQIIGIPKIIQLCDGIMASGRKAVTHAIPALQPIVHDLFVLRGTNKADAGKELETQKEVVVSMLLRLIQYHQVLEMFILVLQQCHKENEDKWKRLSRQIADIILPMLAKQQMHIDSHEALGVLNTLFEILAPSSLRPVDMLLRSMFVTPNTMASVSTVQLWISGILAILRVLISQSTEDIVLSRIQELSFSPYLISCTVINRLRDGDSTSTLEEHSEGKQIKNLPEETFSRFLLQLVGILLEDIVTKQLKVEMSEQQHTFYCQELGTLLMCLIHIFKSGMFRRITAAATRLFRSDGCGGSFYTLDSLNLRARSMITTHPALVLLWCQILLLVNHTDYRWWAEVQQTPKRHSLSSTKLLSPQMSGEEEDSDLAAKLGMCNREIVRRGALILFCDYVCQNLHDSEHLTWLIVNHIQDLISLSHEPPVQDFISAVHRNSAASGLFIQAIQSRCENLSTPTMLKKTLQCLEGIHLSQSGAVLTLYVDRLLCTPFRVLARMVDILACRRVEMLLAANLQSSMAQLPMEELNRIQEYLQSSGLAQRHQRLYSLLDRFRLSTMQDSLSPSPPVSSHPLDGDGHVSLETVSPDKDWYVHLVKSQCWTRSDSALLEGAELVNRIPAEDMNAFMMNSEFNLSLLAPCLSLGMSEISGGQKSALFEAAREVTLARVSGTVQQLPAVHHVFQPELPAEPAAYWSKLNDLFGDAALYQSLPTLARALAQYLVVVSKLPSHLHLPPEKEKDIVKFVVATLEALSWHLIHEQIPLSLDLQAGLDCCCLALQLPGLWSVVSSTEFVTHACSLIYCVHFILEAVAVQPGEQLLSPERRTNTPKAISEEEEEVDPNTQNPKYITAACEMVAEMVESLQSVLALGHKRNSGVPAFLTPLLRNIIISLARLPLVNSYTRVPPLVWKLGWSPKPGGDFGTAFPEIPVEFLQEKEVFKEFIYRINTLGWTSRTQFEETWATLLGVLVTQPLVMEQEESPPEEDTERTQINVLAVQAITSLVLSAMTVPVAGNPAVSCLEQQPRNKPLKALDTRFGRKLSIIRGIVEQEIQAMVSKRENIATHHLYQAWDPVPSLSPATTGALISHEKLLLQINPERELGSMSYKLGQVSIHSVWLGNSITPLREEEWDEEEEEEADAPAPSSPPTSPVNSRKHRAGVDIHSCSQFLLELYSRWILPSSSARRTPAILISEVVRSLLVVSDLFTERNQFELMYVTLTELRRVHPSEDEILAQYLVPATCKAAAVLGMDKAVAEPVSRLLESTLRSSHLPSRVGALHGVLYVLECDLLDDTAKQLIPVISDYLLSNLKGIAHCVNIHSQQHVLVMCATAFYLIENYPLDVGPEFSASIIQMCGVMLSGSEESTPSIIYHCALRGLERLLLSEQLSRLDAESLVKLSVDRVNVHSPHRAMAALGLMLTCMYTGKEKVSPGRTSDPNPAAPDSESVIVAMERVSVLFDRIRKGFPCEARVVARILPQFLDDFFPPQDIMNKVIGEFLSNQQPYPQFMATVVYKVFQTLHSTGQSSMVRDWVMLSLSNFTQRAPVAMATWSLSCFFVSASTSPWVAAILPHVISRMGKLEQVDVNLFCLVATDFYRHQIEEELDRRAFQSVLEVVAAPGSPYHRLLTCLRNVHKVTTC
# The entries are a selection whose mix differs from that of the whole data set. Active and inactive are the calls of the source. No stated cut-off is given here; in the data, active means inhibition above about 50%; inactive means the rest.
# Target: Huntingtin (Homo sapiens) (UniProt P42858)
# Test: mutant huntingtin-calmodulin interaction inhibitors – biochemical, AlphaScreen, primary screen (AID 1671202);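 on inhibition: 0% = both proteins with DMSO and 100% = one protein alone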
# Conditions: AlphaScreen His-mHTT/GST-CaM binding, luminescence; at 15 µM, active compounds read high
row,Compound,inhibition
1,O=[N+]([O-])c1cc([N+](=O)[O-])c(/C=N/O)c([N+](=O)[O-])c1,inactive
2,O=[N+]([O-])c1cc([N+](=O)[O-])c(C=Nc2ccccc2)c([N+](=O)[O-])c1,active: 63%
3,O=[N+]([O-])c1nonc1COc1nonc1[N+](=O)[O-],inactive: 11%
4,CC(CNc1c([N+](=O)[O-])cc(F)cc1[N+](=O)[O-])([N+](=O)[O-])[N+](=O)[O-],inactive: 20%
5,O=[N+]([O-])c1cc([N+](=O)[O-])c2c(c1)[nH][n+]1c3cc([N+](=O)[O-])cc([N+](=O)[O-])c3nn21,inactive: 25%
6,O=[N+]([O-])c1ccc(-n2ncc3c([N+](=O)[O-])cc([N+](=O)[O-])cc32)c([N+](=O)[O-])c1,inactive: 3%
7,O=[N+]([O-])c1cc2c(c([N+](=O)[O-])c1[N+](=O)[O-])OCCO2,active: 86%
8,O=[N+]([O-])c1cc([N+](=O)[O-])c2c(c1)S(=O)(=O)c1cc([N+](=O)[O-])cc([N+](=O)[O-])c1N2,inactive: -3%
9,Nc1nonc1N=NNc1nonc1N,inactive: -2.93%
10,O=[N+]([O-])[N-]c1nonc1[N-][N+](=O)[O-],inactive: -6.57%
11,N1=Nc2nonc2N=Nc2nonc2N=Nc2nonc2N=Nc2nonc21,active: 63%
12,CC(CNC(=O)C(C)([N+](=O)[O-])[N+](=O)[O-])([N+](=O)[O-])[N+](=O)[O-],inactive: -4%
13,Cc1cc([N+](=O)[O-])c(NCC(C)([N+](=O)[O-])[N+](=O)[O-])c([N+](=O)[O-])c1[N+](=O)[O-],active: 100%
14,Nc1nc(N)c([N+](=O)[O-])cc1[N+](=O)[O-],inactive: -2.68%
15,O=[N+]([O-])c1cc2c(c([N+](=O)[O-])c1)-c1c(cc([N+](=O)[O-])cc1[N+](=O)[O-])C2=NO,active: 79%
16,O=[N+]([O-])c1n[nH]c([N+](=O)[O-])c1-c1n[nH]c(-c2c([N+](=O)[O-])n[nH]c2[N+](=O)[O-])c1[N+](=O)[O-],inactive: -7.18%
17,Cc1nc([N+](=O)[O-])c([N+](=O)[O-])[nH]1,inactive: -0.13%
18,C=CC[C@H]1CC(C(O)(CC=C)CC=C)=C[C@@H](CC=C)N1.O=[N+]([O-])c1cc([N+](=O)[O-])c(O)c([N+](=O)[O-])c1,inactive: -4.12%
19,O=[N+]([O-])c1nonc1-c1n[nH]c(-c2nonc2[N+](=O)[O-])n1,inactive: 15%
20,CC(CNc1c([N+](=O)[O-])cc([N+](=O)[O-])c(Cl)c1[N+](=O)[O-])([N+](=O)[O-])[N+](=O)[O-],inactive: 20%
21,CC(CCNC(=O)NCCC(C)([N+](=O)[O-])[N+](=O)[O-])([N+](=O)[O-])[N+](=O)[O-],inactive: -5%
22,O=c1[nH]c2c([N+](=O)[O-])c([N+](=O)[O-])c([N+](=O)[O-])c([N+](=O)[O-])c2[nH]1,active: 87%
23,O=[N+]([O-])c1nonc1NCNc1nonc1[N+](=O)[O-],inactive: -2%
24,CC(CNc1c([N+](=O)[O-])cc(Cl)cc1[N+](=O)[O-])([N+](=O)[O-])[N+](=O)[O-],inactive: 38%
